{
  "source": "ChEMBL document CHEMBL1144377",
  "about": "“Oximinoarylsulfonamides as potent HIV protease inhibitors” (Bioorg Med Chem Lett, 2005)",
  "system": "Human immunodeficiency virus 1",
  "experiment": "Inhibitory concentration against wild type human immunodeficiency virus",
  "assay_type": "functional, organism-based",
  "data": [
    {"smiles": "Cc1cccc(C)c1OCC(=O)N[C@@H](Cc1ccccc1)[C@@H](O)C[C@H](Cc1ccccc1)NC(=O)[C@H](C(C)C)N1CCCNC1=O", "note": "[LOPINAVIR]", "values": [
      {"measurement": "IC50", "result": 35, "unit": "nM"}
    ]}
  ]
}
